The list shows a part of the results, in another mix than the full data. Results filed as inconclusive are left out. Active and inactive are the calls of the source. The call rests on the fitted dose curve; in most records, active means well fitted activation curve with a large enough effect; inconclusive means small, poorly fitted or top-dose-only effect; inactive means no such curve, though single readings can be large or run the other way.

The experiment is described as follows: qHTS Assay for Agonists of the Thyroid Stimulating Hormone Receptor: Activators of Intracellular cAMP Concentrations in Parental HEK 293. Further: % of control where 0% means no effect; nearly all actives have a fitted effect of over 55% in size. Particulars: parental HEK293 CNG cAMP sensor, membrane potential fluorescence; at 57.1 µM (top of the series) unless noted. (Quantitative high-throughput screening tests each substance at several concentrations.)
Consider `NNC(NN)NN.n1nc(-c2nn[nH]n2)n[nH]1`, for which the activation is inactive: 11.6% [at 11.4 µM].

Consider `Cc1ccccc1NP(C)(=O)Nc1ccccc1C`, for which the activation was inactive: 12%.

As to `CP(=O)(Nc1ccc2c(c1)OCCO2)Oc1ccccc1` (stereo not drawn), the activation is inactive: 7.8%.

For `CCOP(=O)(CC)OCC`, the activation is inactive: -0.244%.

For `CCOP(C)(=S)SCC(=O)NC(C)(CC)C(=O)O` (stereo not drawn), the activation is inactive: 28.5%.

In the case of `Cc1c([N+](=O)[O-])cccc1[N+](=O)[O-]`, the activation is inactive: 7.48%.

For `CN(C)CCOC(=O)C(O)(c1ccccc1)C1CCCCC1` (stereo not drawn), the activation was inactive: 8.42%.

Consider `Cc1cccc([N+](=O)[O-])c1[N+](=O)[O-]`, for which the activation was inactive: -39.1%.

Consider `CP(=O)(Nc1ccccc1F)Oc1ccccc1` (stereo not drawn), for which the activation was inactive: 13.1%.

On to `CP(=O)(Nc1ccccn1)Oc1ccccc1` (stereo not drawn), for which the activation is inactive: 7.9%.

On to `Cc1nc2ccc3ccccc3c2o1.O=[N+]([O-])c1cc([N+](=O)[O-])c(O)c([N+](=O)[O-])c1`, for which the activation was inactive: 7.28%.

As to `COc1ccccc1OP(C)(=O)Nc1ccc(C)c(C)c1` (stereo not drawn), the activation was inactive: 8.8%.

Turning to `CP(=O)(Oc1ccccc1)N1CCOC1=O` (stereo not drawn), the activation was inactive: 2.09%.

Take `COc1ccccc1OP(C)(=O)Nc1c(C)n(C)n(-c2ccccc2)c1=O` (stereo not drawn): the activation was inactive: 25%.

For `CCOP(C)(=S)SCC(=O)NC(C)C(=O)O` (stereo not drawn), the activation was inactive: 0.701%.

As for `CP(=O)(NC(=O)Nc1ccccc1)Oc1ccccc1` (stereo not drawn), the activation is inactive: 9.95%.

Regarding `CP(=S)(Nn1cnnc1)Oc1ccccc1` (stereo not drawn), the activation is inactive: 1.12%.

In the case of `N1=C(c2nnc(-c3nn[nH]n3)nn2)NNN1`, the activation was inactive: 25.6% [at 11.4 µM].

As for `Cc1ccc(NP(C)(=O)Oc2ccccc2)c(C)c1` (stereo not drawn), the activation was inactive: 8.27%.

Regarding `COc1ccccc1OP(C)(=O)Nc1ccc(C)cc1` (stereo not drawn), the activation was inactive: -1.57%.

For the compound `Cc1ccc(C)c(NP(C)(=O)Oc2ccccc2)c1` (stereo not drawn), the activation was inactive: 13.1%.

Turning to `O=[N+]([O-])c1cccc([N+](=O)[O-])c1`, the activation is inactive: -8.38%.

`Cc1nc2ccc3ccccc3c2s1.O=[N+]([O-])c1cc([N+](=O)[O-])c(O)c([N+](=O)[O-])c1`: the activation is inactive: 17.2%.

(Values after PubChem BioAssay AID938 (National Center for Advancing Translational Sciences (NCATS), 2007).)
